## scFv variants of Ab-14 (light chain) against a SARS-CoV-2 spike peptide

From the AlphaSeq antibody data of Li et al. 2023 (doi:10.1038/s41467-023-39022-2), copy in the FLAb collection.

Binding partner: SARS-CoV-2 spike HR2 peptide, sequence PDVDLGDISGINAS.

Parent scFv Ab-14: VH joined to VL by the linker GGGGSGGGGSGGGGS. Changes lie in the light chain CDRs alone.
VH: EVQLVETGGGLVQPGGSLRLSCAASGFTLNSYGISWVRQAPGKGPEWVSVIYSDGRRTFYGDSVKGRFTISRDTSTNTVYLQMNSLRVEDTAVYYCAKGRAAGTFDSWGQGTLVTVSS
VL: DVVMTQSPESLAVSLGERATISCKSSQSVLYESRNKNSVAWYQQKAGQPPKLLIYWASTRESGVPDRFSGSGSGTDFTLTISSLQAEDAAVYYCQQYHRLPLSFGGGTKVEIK

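The starting antibody came from a phage panning campaign against this peptide. The variants were designed computationally from a first round of random CDR variants and then made and measured. Group labels follow the data file (Ctrl: baseline library sampled from a position-specific scoring matrix, with some repeated check sequences; En: ensemble of fine-tuned language models; GP: Gaussian process model; HC: hill climbing; Gen: genetic algorithm; Gibbs: Gibbs sampling; a sequence that several methods proposed may carry one label only). AlphaSeq pools MATa yeast showing the antibodies with MATalpha yeast showing the peptide. Binding brings cells together so that they mate, and sequencing counts the barcode pairs among the diploids. Read counts were normalised to the haploid input and turned into Kd by a linear fit to BCL2-family pairs of known affinity, for each replicate. The assay was run in six technical replicates.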

Variants are written as CDR1, CDR2 and CDR3 of the light chain (limits as in the source). Parent: KSSQSVLYESRNKNSVA, WASTRES, QQYHRLPLS.
This list holds designs with more than six substitutions.
Values are apparent Kd, the geometric mean of the replicates that gave a signal; lower means stronger binding.
An entry "no signal" has no value in the source: the pair was not observed among the diploids in any replicate. This suggests poor binding but is not conclusive.

| CDR-L1 | CDR-L2 | CDR-L3 | group | Kd | seen in |
|---|---|---|---|---|---|
| KISGMSNHQSSVANNVA | ENVTRVN | QQYFRLPLI | En_Gen | 14 nM | 6 of 6 |
| QLGKNQDGDTLSQNAIA | HDALRVD | QQYFRLPLL | En_Gibbs | 13 nM | 6 of 6 |
| KLSQVTEYEMHNRDNVA | DLTTRGR | QDYHRLPLS | En_HC | 1.1 nM | 6 of 6 |
| MFSQMTGLGMKAKNSVA | QASMRFN | QQYHRLPLI | En_Gen | 260 nM | 3 of 6 |
| KLYMGVDYGDRNKNQVA | HASQRES | QQYHRLPLS | GP_Gibbs | 5.5 nM | 6 of 6 |
| TISQMWFIEEKNRNNVA | EMTTREN | QDYDRLPLS | En_HC | 6.3 nM | 6 of 6 |
| TISQSVGMTSRNKNSVA | ENSTRED | QQYDRLPLS | En_HC | 380 nM | 4 of 6 |
| KLSGLMASSKFIKNNVA | ENNTRED | QQYDRLPLS | En_Gen | no signal | 0 of 6 |
| KFEQSMGYESRNQNSVA | EASHRES | QQYHRLPLW | GP_Gibbs | 1.0 nM | 6 of 6 |
| KLSQSWGGEWRNFNSVA | HASTREQ | QDYHRLPLS | GP_Gibbs | 1.0 nM | 6 of 6 |
| SLVSKADYMDSERNNIA | NMDLRNE | QQYFHLPLT | En_Gibbs | 6.6 nM | 6 of 6 |
| QIYQAMHTLMQAKNNIA | DVTNRNN | QQYHRLPLS | En_Gen | 1.5 nM | 6 of 6 |
| LLSGSEQYESRNKNSVA | DASTRES | QAYHRLPLS | GP_Gibbs | 1.9 nM | 6 of 6 |
| MMSSLMGYESRHINNVA | QTTTREQ | QQYDRLPLI | En_Gen | 410 pM | 6 of 6 |
| KLSQVTHSEIRNKNSIA | EMVTREV | QQYDRLPLS | En_HC | 35 nM | 6 of 6 |
| KFLQSQEYESRNKNSVA | HASTRED | QQYHCLPLS | GP_HC | 6.3 nM | 6 of 6 |
| SLGLVTMLEYAERNNVA | NNSTREK | QQYDRLPLS | En_Gen | 98 nM | 6 of 6 |
| KLLQEVTGHARNRNSVA | HNSTRED | QQYDRLPLS | En_HC | 46 nM | 1 of 6 |
| MISQVMNTLTRHGNNVA | DLTEREV | QQYFRLPLS | En_Gen | 6.8 nM | 1 of 6 |
| KLAMYLEMWADTKHAVA | DANHKTS | QQYNRLPIS | En_Gibbs | 110 nM | 5 of 6 |
| KSSPSVMGEERNSNSVA | AASVREV | QQYHRLPLS | GP_Gibbs | 1.6 nM | 6 of 6 |
| KYYPSYLYESRNKNSVA | QASQRES | QQYHLLPLS | GP_HC | 20 nM | 6 of 6 |
| KLTMITGTEKVRGNNVA | EMETREN | QQYNRLPLS | En_Gen | 2.8 nM | 6 of 6 |
| KVDSAVNYEQRNKNSVA | DASQRES | QQYHRLPLS | GP_Gibbs | 500 pM | 6 of 6 |
| TLYGLTNSMSKNKDNVA | EMSTREE | QQYDRLPLI | En_Gen | 23 nM | 6 of 6 |
| HIQEVDNQVENKYGNVA | DASEYLA | QQYFQLPIS | En_Gibbs | 130 nM | 4 of 6 |
| KIGMTLNQLMHQKNNVA | DLVMREK | QQYHRLPLS | En_Gen | 3.1 nM | 6 of 6 |
| KLGTVTSYEMQNKNSVA | QMTTRES | QQYHRLPLS | En_HC | 1.4 nM | 6 of 6 |
| TISSSMLYLSNLKNSVA | QAETRES | QQYHRLPIS | En_HC | 19 nM | 6 of 6 |
| TISEVYNQALGMRNSVA | NNQTRED | QQYDRLPLS | En_Gen | no signal | 0 of 6 |
| KISMMYRYESTASNSIA | EVTTRAE | QSYHRLPLS | En_HC | 31 nM | 5 of 6 |
| KLRMMTLTEGYFKNSVA | QASTRAN | QSYHRLPLS | En_HC | 21 nM | 6 of 6 |
| IIDQLMYHGNKRANSIA | QASERLN | QQYHHLPLF | En_Gen | 24 nM | 6 of 6 |
| KFEQLWGPEQRNKNSVA | NASQRED | QQYHRLPLS | GP_Gibbs | 800 pM | 6 of 6 |
| KFSQMDLYESRNKNQVA | SASQRSS | QQYHRLPLS | GP_Gibbs | 4.9 nM | 6 of 6 |
| ILAEASDDITEKQNSIA | ETQQVYS | QQYHRLPLA | En_Gibbs | 47 nM | 6 of 6 |
| RYQMDDNIGKGARNNIA | DGAEVYR | QQYARLPLT | En_Gibbs | 1.0 nM | 6 of 6 |
| TISGMANYESTNKNSVA | ELTTRGN | QQYERLPLS | En_HC | 30 nM | 6 of 6 |
| KISGMSTIESITHNSVA | QTSTRES | QQYDRLPLS | En_HC | 2.6 nM | 6 of 6 |
| ALTNEFESVSHHKNSIA | HTDQRCM | QQYATLPLS | En_Gibbs | 5.8 nM | 6 of 6 |
| HISMMVGTKGYRKNSVA | NAETRED | QQYHRLPLS | En_HC | 4.3 nM | 6 of 6 |
| TISDLMHMESRNVNNVA | DLVKRES | QQYHRLPLS | En_HC | 180 pM | 6 of 6 |
| KLSSYVGGESRNKSSLA | DNSTRES | QQYHRLPLS | En_HC | 60 nM | 6 of 6 |
| MLTQMTGWGMKASNSVA | QASTRFE | QQYHRLPLI | En_Gen | 19 nM | 6 of 6 |
| QLLMATMQGTYNRNSVA | QAETRED | QSYHRLPLS | En_HC | 980 pM | 6 of 6 |
| KIHCRELWYQGQWNNIA | EAAKLVE | QQYALLPLA | En_Gibbs | 45 nM | 3 of 6 |
| KVQQSELGLSRNKWSVA | EASTRED | QQYHRLPLS | GP_Gibbs | 46 nM | 5 of 6 |
| RVSQSFLYEARPVNSVA | WASTRES | LQYHRLPLS | Ctrl | no signal | 0 of 6 |
| KIGATLNQLMHQKNNVA | DLVMRES | QQYHRLPLS | En_Gen | 16 nM | 6 of 6 |
| KLVNFMNRGTHMTSNIA | DAQNRSD | QQYARLPLA | En_Gen | 8.1 nM | 6 of 6 |
| KLSQQMLYESRNKNNVA | AASDRED | QQYHRLPLS | GP_Gibbs | 760 pM | 6 of 6 |
| HFSQMLEPGAQNFNAVA | HGDRVTE | QQYHKLPLA | En_Gibbs | 18 nM | 6 of 6 |
| MFSQSVMYGSFYRNSVA | QTSTREQ | QQYDRLPLS | En_HC | 5.7 nM | 6 of 6 |
| TLYGLTNSMTKNKDNVA | EMSTREL | QQYDRLPLM | En_Gen | 21 nM | 5 of 6 |
| QIAETNMHVGIGANAIA | NATVRSA | QQYLRLPLM | En_Gibbs | 1.2 nM | 6 of 6 |
| TISQLMMYESRNKNNVA | GTSTRES | QCYHRLPLS | En_HC | 4.1 nM | 6 of 6 |
| MLSEVLHMLGVQKNSIA | DLVIRAN | QQYHRLPLM | En_Gen | no signal | 0 of 6 |
| KLQQQDEYESRNKNSVA | HASCRWQ | QQYHRLPLS | GP_Gibbs | 2.2 nM | 6 of 6 |
| KMQQSELMEERNSNSVA | SASLRES | QQYHRLPLS | GP_Gibbs | 4.4 nM | 5 of 6 |
| TISQSAHQESHNKNSVA | DLSVRGS | QQYDRLPLS | En_HC | 11 nM | 6 of 6 |
| SLGLVTMLEYAGRNSVA | NNSTREA | QQYDRLPLS | En_Gen | 530 nM | 1 of 6 |
| KSSQEVDLESRNDNSVA | NASCRED | QQYHRLPLS | GP_Gibbs | 1.6 nM | 6 of 6 |
| MVTQMAMTGMKNKRSVA | NAETREY | QQYHRLPLI | En_Gen | 7.8 nM | 6 of 6 |
| KISMSYRYESQAKNSIA | EMTTRME | QSYHRLPLS | En_HC | 1.0 nM | 6 of 6 |
| NMNVGLNFGKIQHQAIA | EVEKRES | QQYARLPLT | En_Gibbs | 2.5 nM | 6 of 6 |
| KISGYLHKESKNKNSVA | EMVNRES | QQYDRLPLS | En_HC | 9.4 nM | 6 of 6 |
| KLSQVTEYESHQKNNVA | DLTTRGS | QDYHRLPLS | En_HC | 780 pM | 6 of 6 |
| HMSMLTLGGMKARNSVA | QMTTREN | QQYDRLPLS | En_Gen | 2.0 nM | 6 of 6 |

The parent sequence was in this pool as ten entries: three were never detected, three once, and four in most replicates, with averages from 2.2 nM to 240 nM.
As a blank, each scFv also met three strains without target: over all light chain designs, 4% of these pairings were detected, typically at 430 nM and seldom below 38 nM.
In the paper, a design with two or fewer of six values counts as a poor binder.
The range of this assay differs from that of the first round, and the authors advise against merging the two.